Key:
[1] = target: Phosphatidylinositol 4,5-bisphosphate 3-kinase catalytic subunit gamma isoform (Homo sapiens, UniProt P48736)
[2] = target: T1, Phosphatidylinositol 4,5-bisphosphate 3-kinase catalytic subunit delta isoform (Homo sapiens, UniProt O00329)
T1 sequence (O00329 whole entry): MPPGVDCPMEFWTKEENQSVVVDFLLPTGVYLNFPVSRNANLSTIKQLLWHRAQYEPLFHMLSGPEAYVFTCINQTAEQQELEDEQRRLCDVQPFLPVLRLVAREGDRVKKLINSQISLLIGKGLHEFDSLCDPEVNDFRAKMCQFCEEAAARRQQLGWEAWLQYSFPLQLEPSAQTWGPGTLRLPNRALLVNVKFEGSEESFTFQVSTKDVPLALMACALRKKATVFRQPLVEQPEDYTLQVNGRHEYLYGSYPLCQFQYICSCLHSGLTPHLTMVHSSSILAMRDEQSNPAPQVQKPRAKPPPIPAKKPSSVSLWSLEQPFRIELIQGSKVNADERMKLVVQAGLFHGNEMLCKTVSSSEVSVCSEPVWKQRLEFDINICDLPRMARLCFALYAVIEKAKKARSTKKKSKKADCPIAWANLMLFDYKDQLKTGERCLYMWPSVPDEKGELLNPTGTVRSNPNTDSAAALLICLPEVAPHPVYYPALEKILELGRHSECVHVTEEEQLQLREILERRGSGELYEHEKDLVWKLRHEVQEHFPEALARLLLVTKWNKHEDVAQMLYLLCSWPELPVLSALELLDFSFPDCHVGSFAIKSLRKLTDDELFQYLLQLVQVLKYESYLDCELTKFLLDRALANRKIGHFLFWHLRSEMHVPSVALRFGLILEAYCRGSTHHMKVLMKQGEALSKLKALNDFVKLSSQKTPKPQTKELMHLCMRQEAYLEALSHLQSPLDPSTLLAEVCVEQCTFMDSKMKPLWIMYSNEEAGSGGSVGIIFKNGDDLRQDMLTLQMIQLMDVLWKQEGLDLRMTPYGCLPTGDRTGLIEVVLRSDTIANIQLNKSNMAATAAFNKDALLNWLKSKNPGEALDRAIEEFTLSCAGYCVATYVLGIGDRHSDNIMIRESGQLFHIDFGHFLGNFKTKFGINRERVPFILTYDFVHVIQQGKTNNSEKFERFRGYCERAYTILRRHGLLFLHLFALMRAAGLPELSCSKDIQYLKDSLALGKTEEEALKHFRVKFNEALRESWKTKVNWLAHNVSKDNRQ

The chains behind the UniProt entries cited, without tags or fusion partners. Where a name states a change or a piece, a line headed by the entry shows the natural chain unless it says otherwise.
UniProt P48736: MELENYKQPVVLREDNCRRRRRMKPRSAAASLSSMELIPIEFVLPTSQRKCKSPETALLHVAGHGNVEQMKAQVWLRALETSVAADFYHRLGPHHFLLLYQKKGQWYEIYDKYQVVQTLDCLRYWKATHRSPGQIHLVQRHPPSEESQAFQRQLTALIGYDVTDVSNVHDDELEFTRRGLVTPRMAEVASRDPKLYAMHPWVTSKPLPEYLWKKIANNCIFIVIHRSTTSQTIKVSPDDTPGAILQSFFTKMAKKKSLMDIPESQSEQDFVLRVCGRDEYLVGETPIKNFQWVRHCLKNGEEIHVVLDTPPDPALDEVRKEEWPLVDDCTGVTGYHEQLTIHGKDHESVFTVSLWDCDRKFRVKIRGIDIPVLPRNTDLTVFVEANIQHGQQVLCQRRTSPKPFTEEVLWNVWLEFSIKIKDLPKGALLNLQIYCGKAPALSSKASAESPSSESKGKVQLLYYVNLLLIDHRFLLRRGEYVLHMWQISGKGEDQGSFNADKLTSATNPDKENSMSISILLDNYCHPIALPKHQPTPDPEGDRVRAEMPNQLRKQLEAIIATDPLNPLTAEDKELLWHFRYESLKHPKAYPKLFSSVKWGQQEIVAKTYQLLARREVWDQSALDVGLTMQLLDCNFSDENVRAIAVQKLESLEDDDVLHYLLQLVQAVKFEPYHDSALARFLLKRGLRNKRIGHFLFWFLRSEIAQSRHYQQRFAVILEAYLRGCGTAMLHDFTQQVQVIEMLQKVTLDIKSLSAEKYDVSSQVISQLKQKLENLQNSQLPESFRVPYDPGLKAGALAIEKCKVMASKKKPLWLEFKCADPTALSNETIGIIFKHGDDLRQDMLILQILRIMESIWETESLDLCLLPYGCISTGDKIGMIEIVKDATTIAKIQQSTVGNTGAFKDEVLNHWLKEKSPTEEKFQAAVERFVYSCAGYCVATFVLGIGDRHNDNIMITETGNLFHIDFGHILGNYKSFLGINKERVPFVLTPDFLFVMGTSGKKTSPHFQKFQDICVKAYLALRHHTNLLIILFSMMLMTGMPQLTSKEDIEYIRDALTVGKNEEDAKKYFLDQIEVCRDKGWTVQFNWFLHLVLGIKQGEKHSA

Structure (SMILES)	IC50 [1] [nM]	IC50 [2] [nM]
Nc1nc2cc(-c3cn(C4CCOCC4)c4ncnc(N)c34)ccc2o1	< 1000	< 1000
CC(C)n1nc(-c2ccc3c(NC4CC4)noc3c2)c2c(N)ncnc21	< 1000	
Nc1ncnc2c1c(-c1cc3cc(O)ccc3[nH]1)nn2C1CCCC1	< 500	
